Measurements taken from patent publication US9655882B2, “Compositions and methods for treatment of neurodegenerative disease” (THE JOHNS HOPKINS UNIVERSITY, priority 2008, dated 2017).

Experiments:
mouse RGCs [1] = experiment: RGC neurite growth in purified primary mouse RGC culture (high-content screening); type: cell-based; conditions: mouse RGCs in vitro, dosage-dependent
mouse RGCs [2] = experiment: RGC survival in purified primary mouse RGC culture (high-content screening, Calcein AM/Hoechst/Ethidium Homodimer-1); type: cell-based; conditions: mouse RGCs in vitro, dosage-dependent

With CCN(CC)CCNC(=O)c1c(C)[nH]c(/C=C2\C(=O)Nc3ccc(F)cc32)c1C [sunitinib, N-[2-(diethylamino)ethyl]-5-[(Z)-(5-fluoro-1,2-dihydro-2-oxo-3H-indol-3-ylidine)methyl]-2,4-dimethyl-1H-pyrrole-3-carboxamide] the “concentration of peak neurite-promoting activity” value (mouse RGCs [1]) was 500 nM and the “concentration of peak neuroprotective activity” value (mouse RGCs [2]) was 1 µM.
